In patent publication US20240141017A1, “FLUORESCENT BIOSENSORS AND METHODS OF USE FOR DETECTING CELL SIGNALING EVENTS” (THE REGENTS OF THE UNIVERSITY OF MICHIGAN, priority 2021, published 2024):
Where two headings read alike, the source gives them in different places.

Columns and labels:
[1] = test system: M-SPOTIT1.1
[2] = molecular target: chimeric opioid receptor of M-SPOTIT1.1 (MOR with the cytosolic domain of K-SPOTIT1.1) (Homo sapiens (Human)) (UniProt P35372); test: cell-based or functional assay

CC(C)C[C@@H](NC(=O)[C@H](Cc1ccccc1)NC(=O)CNC(=O)[C@@H](C)NC(=O)[C@@H](N)Cc1ccc(O)cc1)C(=O)O [DADLE]
increase in fluorescence / signal change vs no drug ([1]; pH 9): 1.6 fold

C[C@@H](NC(=O)[C@@H](N)Cc1ccc(O)cc1)C(=O)NCC(=O)N(C)[C@@H](Cc1ccccc1)C(=O)NCCO [DAMGO]
agonist exposure sufficient to generate a robust fluorescence signal [1]: requires longer incubation time
biosensor activation in maturation time course [1]: lower biosensor activation than fentanyl
activation of M-SPOTIT1.1 ([1]; pH 9): activate

CC(C)NCC(O)c1ccc(O)c(O)c1 (centres unmarked) [isoproterenol]
increase in fluorescence / signal change vs no drug ([1]; 10 μM drug, 24 hours, fixed, imaged at pH 9): 2.2 fold

beta-endorphin (YGGFMTSEKSQTPLVTLFKNAIIKNAYKKGE; Beta-endorphin; UniProt P01189 237-267, looked up)
activation of M-SPOTIT1.1 ([1]; pH 9): activate

leu-enkephalin
activation of M-SPOTIT1.1 ([1]; pH 9): activate

B1: Gαi protein mimic nanobody 39 (Nb39) (VHH)
VHH: QVQLVESGGGLVRPGGSLRLSCVDSERTSYPMGWFRRAPGKEREFVASITWSGIDPTYADSVADRFTTSRDVANNTLYLQMNSLKHEDTAVYYCAARAPVGQSSSPYDYDYWGQGTQVTVSS
cpGFP fluorescence of M-SPOTIT1.1 on incubation with MOR agonists [2]: 3.2 fold
